Results reported in ChEMBL document CHEMBL3585253, “Thiazolidine-2,4-dione derivatives: programmed chemical weapons for key protein targets of various pathological conditions” (2015).

What was measured:
[1] = Lipophilicity, log P of the compound; settings: octanol/water
Homo sapiens = test: Drug absorption in orally dosed human; settings: in vivo, po

Which logP [1] does the source give for `CN(CCOc1ccc(CC2SC(=O)NC2=O)cc1)c1ccccn1` (stereo not drawn) here?
The logP was 2.95.

What about the Fa (Homo sapiens) of the same compound?
The Fa was 95%.

What does the source list for `CCc1ccc(CCOc2ccc(CC3SC(=O)NC3=O)cc2)nc1` (stereo not drawn)?
logP [1]: 3.17; Fa (Homo sapiens): 83%

For `COc1ccc(Oc2cc(N(C)CCOc3ccc(CC4SC(=O)NC4=O)cc3)ncn2)cc1` (stereo not drawn), which logP [1] is on record?
The logP was 4.2.

And the Fa (Homo sapiens)?
Its Fa is 72%.

Which logP [1] does the source give for `Cc1c(C)c2c(c(C)c1O)CCC(C)(COc1ccc(CC3SC(=O)NC3=O)cc1)O2` (stereo not drawn) here?
Its logP is 4.16.

What about the Fa (Homo sapiens) of the same compound?
The Fa was 50%.
